# Measurements reported in patent US9962334B2, “Ophthalmic device having therapeutic agent delivery capability and method of forming same” (Novartis AG, priority 2008, dated 2018).
# Details: soaking in BSS at 37° C.
structure (smiles),measurement,value
CO[C@@]12[C@H](COC(N)=O)C3=C(C(=O)C(C)=C(N)C3=O)N1C[C@@H]1N[C@@H]12 [Mitomycin-C],total MMC loaded into the lens remaining after 11 days,Approximately 20%
